# Source: the supplement of paper PMC13380429
# System: HepG2
# Assay: cell viability relative to DMSO; higher = less toxic
# Details: 72 h; 100 nM
smiles,measurement,value
O=S(=O)(c1cccc2c(O)nccc12)N1CCCNCC1 [hydroxyfasudil],cell viability,108%
